For the assay, the system named is L. infantum amastigotes. In words: Antileishmanial activity on intramacrophage amastigotes of L. infantum. It counts as cell-based, Leishmania infantum. The following applies: ratio IC50 on THP-1 cell line / IC50 toward L. infantum amastigotes. Here is the method:
Cell monolayers were then washed and incubated in the presence of test compounds for 72 h. Slides were fixed with methanol and stained with Giemsa. The percentage of infected macrophages in treated and non-treated cells was determined by light microscopy.

The results in this text go back to publication PMC7824787, “Design, Synthesis and In Vitro Investigation of Novel Basic Celastrol Carboxamides as Bio-Inspired Leishmanicidal Agents Endowed with Inhibitory Activity against Leishmania Hsp90” (Biomolecules, 2021).

Consider `CC1=C(O)C(=O)C=C2C1=CC=C1[C@@]2(C)CC[C@@]2(C)[C@@H]3C[C@](C)(C(=O)NCCN4CCCCC4)CC[C@]3(C)CC[C@]12C` [compound 1, (2R,4aS,6aS,12bR,14aS,14bR)-10-hydroxy-2,4a,6a,9,12b,14a-hexamethyl-11-oxo-N-(2-(piperidin-1-yl)ethyl)-1,2,3,4,4a,5,6,6a,11,12b,13,14,14a,14b-tetradecahydropicene-2-carboxamide], for which the “S.I. (selectivity index)” value was determined as 11.

In the case of `CC1=C(O)C(=O)C=C2C1=CC=C1[C@@]2(C)CC[C@@]2(C)[C@@H]3C[C@](C)(C(=O)NCCN4CCCC4)CC[C@]3(C)CC[C@]12C` [compound 3, (2R,4aS,6aS,12bR,14aS,14bR)-10-hydroxy-2,4a,6a,9,12b,14a-hexamethyl-11-oxo-N-(2-(pyrrolidin-1-yl)ethyl)-1,2,3,4,4a,5,6,6a,11,12b,13,14,14a,14b-tetradecahydropicene-2-carboxamide], the “S.I. (selectivity index)” value was found to be 21.

For `CC1=C(O)C(=O)C=C2C1=CC=C1[C@@]2(C)CC[C@@]2(C)[C@@H]3C[C@](C)(C(=O)NCC45CCCN4CCC5)CC[C@]3(C)CC[C@]12C` [compound 5, (2R,4aS,6aS,12bR,14aS,14bR)-N-((hexahydro-1H-pyrrolizin-7a-yl)methyl)-10-hydroxy-2,4a,6a,9,12b,14a-hexamethyl-11-oxo-1,2,3,4,4a,5,6,6a,11,12b,13,14,14a,14b-tetradecahydropicene-2-carboxamide], the “S.I. (selectivity index)” value is listed as 3.6.

`CC1=C(O)C(=O)C=C2C1=CC=C1[C@@]2(C)CC[C@@]2(C)[C@@H]3C[C@](C)(C(=O)NCCNc4ccnc5cc(Cl)ccc45)CC[C@]3(C)CC[C@]12C` [compound 6, (2R,4aS,6aS,12bR,14aS,14bR)-N-(2-((7-chloroquinolin-4-yl)amino)ethyl)-10-hydroxy-2,4a,6a,9,12b,14a-hexamethyl-11-oxo-1,2,3,4,4a,5,6,6a,11,12b,13,14,14a,14b-tetradecahydropicene-2-carboxamide]: the “S.I. (selectivity index)” value was 1.3.
